Laboratory results from patent publication US20230365558A1, “TETRAHYDROISOQUINOLINE DERIVATIVE AND USE THEREOF” (MEDSHINE DISCOVERY INC., priority 2020, published 2023).

Tested on: Z-138 non-Hodgkin's lymphoma cells
Test: In vitro anti-proliferation assay of Z-138 cells (CellTiter-Glo, 6 days)
Conditions: read-out: IC50 (nM), in vitro anti-proliferative activity on Z-138 tumor cells

| SMILES | IC50 [nM] |
| --- | --- |
| COc1cc2c(cc1C(=O)NC[C@H](O)CN1CCc3ccccc3C1)NC(=O)[C@]1(CCOC1)O2 | 29.3 |
| COc1cc2c(cc1C(=O)NC[C@H](O)CN1CCc3ccccc3C1)NC(=O)[C@@]1(CCOC1)O2 | 11.5 |
| O=C(NC[C@H](O)CN1CCc2ccccc2C1)c1ccc2c(c1)NC(=O)C1(COC1)O2 | 27 |
| O=C(NC[C@H](O)CN1CCc2ccccc2C1)c1ccc2c(c1)NC(=O)C1(CCC1)O2 | 54 |
